{"sequences": {"note": "Protein sequences, listed by entry. Tags and fused reporters are not part of them.", "UniProt P30556, whole entry Y92A": "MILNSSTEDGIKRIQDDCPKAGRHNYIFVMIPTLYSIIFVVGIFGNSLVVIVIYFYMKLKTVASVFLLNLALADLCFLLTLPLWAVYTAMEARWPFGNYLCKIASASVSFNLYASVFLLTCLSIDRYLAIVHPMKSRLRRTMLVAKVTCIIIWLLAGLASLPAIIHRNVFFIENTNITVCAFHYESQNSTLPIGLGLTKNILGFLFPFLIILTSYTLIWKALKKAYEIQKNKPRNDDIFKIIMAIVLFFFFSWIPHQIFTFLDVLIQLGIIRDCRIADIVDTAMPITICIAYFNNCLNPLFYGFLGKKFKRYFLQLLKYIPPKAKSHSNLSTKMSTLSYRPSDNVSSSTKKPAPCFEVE"}, "source": "paper PMC4427029", "about": "(Cell, 2015)", "target": "AT1R single mutants (Homo sapiens, UniProt P30556, Y92A)", "experiment": "Ligand binding assays on AT1R single mutants, COS-1 cell membranes", "conditions": "Tyr92Ala mutant"}
{"smiles": "CCCc1nc2c(C)cc(-c3nc4ccccc4n3C)cc2n1Cc1ccc(-c2ccccc2C(=O)O)cc1", "note": "[telmisartan]", "values": [{"measurement": "change of affinity at mutant", "value": "dramatic decrease"}]}
